This is an account of results in article PMC7150870 (Toxins, 2020).

A short description of this data set: in vitro. As to conditions: human (HepG2, Caco-2, HEK 293T); mouse (RAW 264.7).

`CC1=C[C@H]2O[C@@H]3[C@H](O)C[C@](C)([C@@]2(CO)[C@H](O)C1=O)[C@]31CO1` [DON, deoxynivalenol]: the IC50 was over 50 nM.

In general, IC50 refers to the midpoint of a concentration-inhibition curve.
